Values quoted from earlier work in article PMC8049364, “Quantification of Macrophage-Driven Inflammation During Myocardial Infarction with ^18F-LW223, a Novel TSPO Radiotracer with Binding Independent of the rs6971 Human Polymorphism” (Journal of Nuclear Medicine, 2021).

Settings: cited from earlier work

Substance: 2-[F-18]fluoro-2-deoxy-D-glucose
- dosimetry (effective dose): 0.029 mSv/MBq
